Measured values from US20240116998A1, “GLUCAGON-LIKE PEPTIDE-1 RECEPTOR ANTAGONISTS” (INDIANA UNIVERSITY RESEARCH AND TECHNOLOGY CORPORATION, priority 2021, published 2024).

Amino acid sequences for entries named in this document (tags omitted). A change or cut given only in a name is not applied to a line headed by its entry.
UniProt P43220: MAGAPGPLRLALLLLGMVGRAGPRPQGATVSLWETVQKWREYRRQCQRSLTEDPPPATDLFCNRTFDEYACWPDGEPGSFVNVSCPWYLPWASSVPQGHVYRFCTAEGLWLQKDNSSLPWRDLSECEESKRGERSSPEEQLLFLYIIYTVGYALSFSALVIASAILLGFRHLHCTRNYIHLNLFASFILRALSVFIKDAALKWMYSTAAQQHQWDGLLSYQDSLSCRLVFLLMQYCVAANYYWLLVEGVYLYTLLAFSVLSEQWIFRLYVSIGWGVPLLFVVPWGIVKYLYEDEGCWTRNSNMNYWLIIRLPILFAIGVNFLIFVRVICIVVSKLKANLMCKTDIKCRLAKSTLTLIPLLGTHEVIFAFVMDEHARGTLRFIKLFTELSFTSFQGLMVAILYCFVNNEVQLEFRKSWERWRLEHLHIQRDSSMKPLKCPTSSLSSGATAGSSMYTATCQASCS

Target: human GLP-1 receptor (human, UniProt P43220 24-463)
Assay: cell-based or functional assay

Binder | IC50(nM) (cAMP luciferase reporter, antagonism of 0.05 nM GLP-1)
DLWKQMEEEAVRLFIEWLKNGGPSSGAPPPSK (K40(C18 DiAcid); C-terminal amide (-NH2)) [Ex9-40amide, W11, K40(C18 diacid)] | 43 nM
DLWKQMEEEAVRLFIEWLKNGGPSSGAPPPSK (K40(mPeg-gE(C18 diacid)); C-terminal amide (-NH2)) [Ex9-40amide, W11, K40(mPeg-γE-C18 diacid)] | 87 nM
